Experimental data published in patent US20120114590A1 (priority 2005, published 2012).

Tested on: EMCV
Assay: EMCV antiviral assay (MTT dye uptake) in HepG2 cells
Assay type: cell-based, encephalomyocarditis virus
Conditions: cytokine 24 hours before EMCV challenge

IFN-β: interferon beta (PBL Biomedical) [reference compound]
EC50 (antiviral activity, OD570): 0.46 ng/mL
